The subject of this assay is L-type calcium channels. The note with it: FIG. 1 and FIG. 4.

As for `COC(=O)C1=C(C)NC(C)=C(C(=O)OC(C)C)C1c1cccc2nonc12` (centres unmarked) [isradipine, 3,5-pyridinedicarboxylic acid, 4-(4-benzofurazanyl)-1,4-dihydro-2,6-dimethyl-, methyl 1-methylethyl ester], the “inhibition of L-type calcium channels” value is recorded as “inhibited”.

Regarding `COCCOC(=O)C1=C(C)NC(C)=C(C(=O)OC(C)C)C1c1cccc([N+](=O)[O-])c1` (centres unmarked) [nimodipine, isopropyl 2-methoxyethyl 1,4-dihydro-2,6-dimethyl-4-(m-nitrophenyl)-3,5-pyridinedicarboxylate], the “inhibition of L-type calcium channels” value is “inhibited”.

The values are drawn from patent publication US20210177819A1, “METHODS AND COMPOSITIONS FOR MODULATING CALCIUM CHANNELS” (Northwestern University, priority 2005, published 2021).
